Measurements published in PubChem BioAssay (NCI).
Where “and” joins values, the source holds several entries; their conditions need not be identical. Equal values may be shown once. The list shows a part of the results, in another mix than the full data.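 Negative percent growth values reflect cell death: -40 means 40% of the cells present at the start died, and -100 means all died.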 Calls of active or inactive are those of the source. The calls were made as follows: active = growth percent below 10; inactive = the rest.

Test system: MDA-MB-468 breast
Assay: NCI-60 one-dose screen, 48 h (100 = growth as untreated, 0 = no growth, -100 = all killed)
Details: 10 µM

Row | Compound | growth
1 | Cc1cccc(CN(CCCl)CCCl)c1 | inactive: 82.6%
2 | Cc1ccc(CN(CCCl)CCCl)cc1C | inactive: 93.2%
3 | O=Cc1ccc(N(CCCl)CCCl)cc1Cl | active: -64.3%
4 | BrCCN(CCBr)c1ccc2c(c1)Cc1ccccc1-2 | active: -33.2%
5 | CCC(C)(C)c1ccc(O)c(CN(CCCl)CCCl)c1 | inactive: 104%
6 | Cc1ccc(C(=O)N(CCCl)CCCl)cc1 | inactive: 95.5%
7 | CCOC(=O)c1ccc(N(CCCl)CCCl)cc1 | inactive: 107%
8 | Cc1ccccc1CN(CCCl)CCCl | inactive: 78%
9 | N#CC(C#N)=Cc1ccc2c(c1)OCO2 | inactive: 84.1% and inactive: 90.1%
10 | Cc1cccc(C(=O)N(CCCl)CCCl)c1 | inactive: 96.4%
11 | ClCCN(CCCl)Cc1nc2cc(Cl)c(Cl)cc2[nH]1 | inactive: 50.3%
12 | CCCSP(=O)(CCl)N(CCCl)CCCl (stereo unspecified) | inactive: 95.8%
13 | COc1cc(CN(CCCl)CCCl)cc(OC)c1 | inactive: 97.2%
14 | NC(Cc1ccccc1N(CCCl)CCCl)C(=O)O (stereo unspecified) | inactive: 13%
15 | N#CC(C#N)=Cc1ccc(N(CCCl)CCCl)cc1 | inactive: 30.2%
16 | ClCCSC(SCCCl)=C(SCCCl)SCCCl | inactive: 54.7%
17 | O=C(O)Cc1c[nH]c2ccc(N(CCCl)CCCl)cc12 | inactive: 106%
18 | Fc1cccc(CBr)c1 | inactive: 104%

Row | Compound | growth
19 | O=C(O)c1ccc(N(CCCl)CCCl)cc1 | inactive: 106%
20 | NC(=O)C1(Nc2ccccc2)CCNCC1 | inactive: 90.6%
21 | CCOP(=O)(Cl)OCC | inactive: 113%
22 | Cc1ccc(CN(CCCl)CCCl)cc1 | inactive: 71.9%
23 | ClCCN(CCCl)CCc1ccccc1 | inactive: 109%
24 | N#Cc1ccc(N(CCCl)CCCl)cc1 | inactive: 111%
25 | BrCCN(CCBr)CCCN(CCBr)CCBr | inactive: 96.7%
26 | N#CC1(Nc2ccc(Cl)cc2)CCN(Cc2ccccc2)CC1 | inactive: 86.7%
27 | CCCCOc1ccc(N(CCCl)CCCl)cc1 | inactive: 107%
28 | Oc1ccc(Br)cc1CN(CCCl)CCCl | inactive: 82.7%
29 | Cc1ccccc1NC1(C#N)CCN(Cc2ccccc2)CC1 | inactive: 115%
30 | Cn1c(=O)[nH]cc(N(CCCl)CCCl)c1=O | inactive: 92.6%
31 | C[N+](C)(CCCl)CCCl | inactive: 104%
32 | Cc1cc(O)c(CN(CC(C)Cl)CC(C)Cl)cc1C (stereo unspecified) | inactive: 128%
33 | [O-][n+]1onc(-c2ncon2)c1-c1ncon1 | inactive: 44.5%
34 | COc1cc(N(CCCl)CCCl)cc(OC)c1OC | inactive: 79.6%
35 | NC(=O)C1(Nc2ccccc2)CCN(Cc2ccccc2)CC1 | inactive: 114%
36 | Fc1ccc(CCN(CCCl)CCCl)cc1 | inactive: 97.4%
